This experiment deals with CXCL12α protein, chemically synthesized (α-wt) (UniProt P48061). Kind of experiment: SDS-PAGE and immunoblot; chemically synthesized chemokines separated by SDS-PAGE and probed with the K15C mAb; dimeric forms seen.

Amino acid sequences for entries named in this document (tags omitted). Residues count along the entry.
UniProt P48061, 22-89: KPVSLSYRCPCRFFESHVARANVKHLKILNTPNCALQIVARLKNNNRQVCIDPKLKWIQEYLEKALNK

Broadly, the stoichiometry N is the number of molecules, sites or subunits per partner or assembly.

As for “CXCL12α protein, chemically synthesized (α-wt) (from UniProt P48061-2 22-89) (ligand; other documents disagree on this pair)”, the stoichiometry N was found to be 2.

For the origin of these results see PMC2481281.
